The data set can be described thus: Humidity (wettability/hygroscopicity) test, Chinese Pharmacopoeia 2010. The data set is classed as physicochemical. The following applies: Guidelines for Drug Wetting Test, Chinese Pharmacopoeia 2010 Edition 2 Appendix XIX J; Table 2.

Take Succinate: the Wet weight gain came to 3.60%.

For the origin of these results see patent publication WO2016169030A1, “Fumarate and crystals of pyridylamine compound” (priority 2015, dated 2016).
